Results reported in US20080064871A1, “Production Method of Nitrogen-Containing Fused Ring Compounds” (Japan Tobacco Inc., priority 2006, published 2008).

Chains of the proteins cited; added tags and fusions are not shown.
UniProt P11712, whole entry: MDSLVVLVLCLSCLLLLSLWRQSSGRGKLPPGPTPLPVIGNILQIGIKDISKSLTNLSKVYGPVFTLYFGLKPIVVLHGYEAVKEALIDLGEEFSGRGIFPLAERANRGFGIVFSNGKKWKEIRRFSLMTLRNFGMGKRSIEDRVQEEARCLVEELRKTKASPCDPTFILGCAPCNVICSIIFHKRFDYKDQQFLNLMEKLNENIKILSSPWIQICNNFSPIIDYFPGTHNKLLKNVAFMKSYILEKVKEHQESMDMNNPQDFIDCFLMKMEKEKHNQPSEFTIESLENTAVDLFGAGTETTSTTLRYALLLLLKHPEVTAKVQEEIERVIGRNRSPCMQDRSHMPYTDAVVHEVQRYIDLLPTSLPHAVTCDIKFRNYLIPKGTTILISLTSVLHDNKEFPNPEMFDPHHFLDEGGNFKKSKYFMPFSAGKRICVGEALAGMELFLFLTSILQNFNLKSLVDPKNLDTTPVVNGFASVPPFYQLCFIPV
UniProt Q96S37, whole entry: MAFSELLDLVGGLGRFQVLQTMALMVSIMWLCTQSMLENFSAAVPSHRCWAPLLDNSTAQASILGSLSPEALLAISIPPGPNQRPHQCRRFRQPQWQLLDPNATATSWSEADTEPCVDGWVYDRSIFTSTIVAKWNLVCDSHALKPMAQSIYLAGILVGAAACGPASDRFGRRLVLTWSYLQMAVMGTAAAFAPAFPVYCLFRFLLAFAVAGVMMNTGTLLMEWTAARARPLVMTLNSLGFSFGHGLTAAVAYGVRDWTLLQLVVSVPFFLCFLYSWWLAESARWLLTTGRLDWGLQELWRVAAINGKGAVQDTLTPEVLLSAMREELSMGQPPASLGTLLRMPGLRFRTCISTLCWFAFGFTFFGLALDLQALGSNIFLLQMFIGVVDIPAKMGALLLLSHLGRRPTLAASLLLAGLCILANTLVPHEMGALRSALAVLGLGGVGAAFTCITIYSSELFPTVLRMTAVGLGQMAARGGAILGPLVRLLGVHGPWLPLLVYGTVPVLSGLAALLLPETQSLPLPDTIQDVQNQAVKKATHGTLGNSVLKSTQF

These compounds were tested against CYP2C9 (Homo sapiens, UniProt P11712) (assay: CYP inhibitory test using human liver microsome). Conditions: read-out: CYP2C9 inhibition IC50, model substrate diclofenac, 37° C. 10 min, LC/MS/MS.
Experimental: Reference Experimental Example 2 Cyp Inhibitory Test Using Human Liver Microsome
Human liver microsome (20 mg protein/mL, 5 μL, Xenotech LLC, purchased from Lenexa Kans.) was suspended in 100 mM potassium phosphate buffer (70 μL, pH 7.4), mixed with a solution (0.5 μL) of the Example compound dissolved in DMSO and preincubated at 37° C. for 5 min. NADPH producing system coenzyme solution (β-nicotinamide adenine dinucleotide phosphate: 5.2 mM, D-glucose-6-phosphate: 13.2 mM, magnesium chloride: 13.2 mM, glucose-6-phosphate dehydrogenase: 1.8 U/mL) 25 μL, and a model substrate (CYP3A4: midazolam 1 mM, CYP2D6: bufuralol 1 mM, CYP2C9: diclofenac 2 mM) 0.5 μL dissolved in DMSO were added to start the reaction. After incubation at 37° C. for 10 min., acetonitrile (200 μL) containing an internal standard substance (propranolol 1 μM) was added and the mixture was centrifuged (room temperature, 3000 rpm, 20 min). The amount of the metabolite produced from each model substrate in the supernatant was measured by high performance liquid chromatography/mass spectrometry (LC/MS/MS) and each CYP enzyme activity was determined. The concentration showing 50% inhibition (IC50) was calculated relative to the enzyme activity without addition of Example compound (DMSO 0.5 μL added) as 100%.

SMILES	IC50 [µM]
O=C(O)c1ccc(C(=O)N2CCOc3ccccc32)cc1	> 50
O=C(c1cc(Cl)nc(Cl)c1)N1CCOc2ccccc21	> 50
COC(=O)c1cccc(C(=O)N2CCOc3ccccc32)c1	> 50

Now from value to compound:

IC50 [µM]	SMILES
> 50	O=C(O)c1ccccc1C(=O)N1CCOc2ccccc21
> 50	O=C(c1ccc([N+](=O)[O-])cc1)N1CCOc2ccccc21
> 50	O=C(O)c1cccc(C(=O)N2CCOc3ccccc32)c1
> 50	O=C(c1cc(Cl)cc(Cl)c1)N1CCOc2ccccc21
> 50	COC(=O)c1ccc(C(=O)N2CCOc3ccccc32)cc1

What follows are compounds tested against human URAT1 (Homo sapiens, UniProt Q96S37) (assay: Uric acid transport inhibitory test using human URAT1-expressing cells). Conditions: read-out: hURAT1 (IC50, concentration necessary for inhibiting the uric acid transport rate by 50%); human URAT1 expressing HEK293 cells, uptake of 14C-labeled uric acid for 5 min, room temperature.
Excerpt: Reference Experimental Example 1 Uric Acid Transport Inhibitory Test Using Human Urat1-Expressing Cells
Human URAT1 full length cDNA was subcloned to expression vector pcDNA3.1 and human URAT1 gene was transfected into human embryonic kidney derived cell line (HEK293 cells) by liposome method using Lipofectamine2000. Simultaneously, HEK293 cells transfected with expression vector pcDNA3.1 alone (hereinafter mock cells) were also produced. HEK293 cells expressing human URAT1 gene or mock cells were selected with geneticin resistance as an index. The functional expression of human URAT1 gene was confirmed by a method similar to the following method, using transport of uric acid labeled with ^14C into the cells as an index.
Human URAT1 expressing HEK293 cells or mock cells were cultured in Dulbecco's modified Eagle's MEM medium (high glucose) containing 10% fetal bovine serum, 0.5 mg/mL geneticin sulfate, 100 units/mL penicillin and 100 μg/mL streptomycin under the conditions of 37° C. and 5% CO2 in an incubator. […]
After the medium was removed by aspiration from each well, the cells were washed once with Hank's Balanced Salt Solution (HBSS) and preincubated with HBSS ([…]/well) for 5 min. […] The cells were lysed by stirring and the radioactivity of each well was measured in a liquid scintillation counter (TOP COUNT, Packard). […]

IC50 [µM]	SMILES
0.1 to 1	Nc1c(Cl)cc(C(=O)N2CCOc3ccccc32)cc1Cl
